Data published in US20080260838A1 (priority 2003, published 2008).

What was measured:
[1] = 5-day oronasal inhalation toxicity and toxicokinetics in monkeys (Example 14); assay type: in vivo, cynomolgus monkey (Macaca fascicularis); conditions: FDKP only, 2.1 mg/kg/day (Group 2)
Description: Oronasal administration involved the monkeys wearing a mask over their mouth and nose and breathing the test formulation for 30 min.
Fourteen days prior to the start of treatment, the animals were acclimated to the restraint and dosing procedures. At the start of treatment (Day 1), male animals were between 30 months and 56 months old and ranged in weight from 2.3 to 4.0 kg; females were between 31 months and 64 months and ranged in weight from 1.6 to 3.4 kg. Ten (5 male and 5 female) non-naive cynomolgus monkeys were assigned to 5 groups (2 animals per group) as depicted in tables 5 and 6 below. The non-naive monkeys are colony animals who have previously received the formulations to be tested. However, these formulations have short half lives and are not expected to be present or have any effect on the monkeys during the dosing experiments disclosed herein.
Whole blood samples (1.4 mL/blood sample) were obtained on Day 5 at the following time points: Pre-dose, 10, 30, 45, 60, 90, 120 minutes and 4 hours post-dose. Blood was collected via venipuncture from the femoral vein. […] DPP-IV inhibitor (Millipore—Billerica, Mass.) was added (10 μL/mL of blood) to the tubes approximately 5-10 seconds after blood collection (yielding a concentration of DPP-IV of 100 μM). Tubes were inverted several times and immediately placed onto wet ice. […]

[2] = 28-day inhalation toxicity and toxicokinetics in monkeys (Example 16); assay type: in vivo, cynomolgus monkeys; conditions: for % Change in Mean Value ALT (U/L) / % Change in Mean Value AST (U/L) / % Change in Mean Value LDH (U/L): 3.67 mg/kg/day
Description: To assess the reversibility, persistence or delayed occurrence of any effects, there was a 4-week recovery period.
Forty-two cynomolgus monkeys were divided into 2 groups: main study (n=3/sex/group) and recovery (n=2/sex/group) in groups 1, 2, and 5. […] As is typically, in monkey studies only the high dose and controls were evaluated at recovery.
Animals were observed twice daily for mortality and morbidity and at least once daily, 30 minutes post-dose, for abnormalities and signs of toxicity. Body weight data was collected weekly and qualitative food consumption was assessed daily. Blood was collected for toxicokinetics on Days 1, 28, and 56. Three animals/sex/group were anesthetized, weighed, exsanguinated, and necropsied on Day 29. The remaining animals in Groups 1, 2 and 5 (n=2/sex/group) were anesthetized, weighed, exsanguinated, and necropsied on Day 57. At necropsy, selected organs were weighed and selected tissues were collected and preserved. All tissues from each animal were examined microscopically.

[3] = Effect of agitation and freeze-thaw cycles on GLP-1 (near-UV CD, far-UV CD, fluorescence); assay type: physicochemical; conditions: pH 4.0
Description: The samples were agitated for 30 and 90 min at room temperature and the fluorescence emission spectra were collected after tryptophan excitation at 280 nm. […] Fluorescence emission spectra were collected after tryptophan excitation at 280 nm.

[4] = 1 mg/mL, pH 10.5, 5 days at 40° C.

Substance | AUC∞ and Cmax of FDKP versus animals receiving GLP-1/FDKP at 2.13 mg/kg/day [1] | toxicity ([2]; FDKP up to 3.67 mg/kg/day, 28 days, up to 30 minutes a day) | % Change in Mean Value ALT (U/L) ([2]; females) [%] | % Change in Mean Value AST (U/L) ([2]; females) [%] | % Change in Mean Value LDH (U/L) ([2]; females) [%] | % Change in Mean Value ALT (U/L) ([2]; males) [%] | % Change in Mean Value AST (U/L) ([2]; males) [%] | % Change in Mean Value LDH (U/L) ([2]; males) [%] | effect of freeze-thaw cycles on tertiary structure ([3]; 10 cycles, 1.6, 5.1 and 8.4 mg/mL) | effect of freeze-thaw cycles on secondary structure ([3]; 11 cycles, 10 mg/mL) | precipitation at high ionic strength (1.0 mg/mL GLP-1, 1M NaCl, pH 4, 20° C., reversible on dilution with water) | pH range of reversible precipitation (peptide concentration 10 mg/ml, 20° C.) | deamidation [4]
3,6-di(fumaryl-4 aminobutyl)-2,5-diketopiperazine [FDKP] | of the same order of magnitude | not associated with any toxicity | −13 | −34 | −53 | 14 | 60 | −6 | – | – | – | – | –
GLP-1 | – | – | – | – | – | – | – | – | tertiary structure of the peptide does not notably change | secondary structure of the peptide does not change significantly | much of the peptide (at 1.0 mg/mL) precipitates out of solution | 6.3-7.6 | deamidation of GLP-1 was not observed
